Results published in ChEMBL document CHEMBL4680373, “Evaluation of 5-(Trifluoromethyl)-1,2,4-oxadiazole-Based Class IIa HDAC Inhibitors for Huntington's Disease” (ACS Med Chem Lett, 2021).

Chains of the proteins cited; added tags and fusions are not shown. Lines headed by an entry give the natural chain unless they say otherwise; changes in a name come on top.
UniProt P56524: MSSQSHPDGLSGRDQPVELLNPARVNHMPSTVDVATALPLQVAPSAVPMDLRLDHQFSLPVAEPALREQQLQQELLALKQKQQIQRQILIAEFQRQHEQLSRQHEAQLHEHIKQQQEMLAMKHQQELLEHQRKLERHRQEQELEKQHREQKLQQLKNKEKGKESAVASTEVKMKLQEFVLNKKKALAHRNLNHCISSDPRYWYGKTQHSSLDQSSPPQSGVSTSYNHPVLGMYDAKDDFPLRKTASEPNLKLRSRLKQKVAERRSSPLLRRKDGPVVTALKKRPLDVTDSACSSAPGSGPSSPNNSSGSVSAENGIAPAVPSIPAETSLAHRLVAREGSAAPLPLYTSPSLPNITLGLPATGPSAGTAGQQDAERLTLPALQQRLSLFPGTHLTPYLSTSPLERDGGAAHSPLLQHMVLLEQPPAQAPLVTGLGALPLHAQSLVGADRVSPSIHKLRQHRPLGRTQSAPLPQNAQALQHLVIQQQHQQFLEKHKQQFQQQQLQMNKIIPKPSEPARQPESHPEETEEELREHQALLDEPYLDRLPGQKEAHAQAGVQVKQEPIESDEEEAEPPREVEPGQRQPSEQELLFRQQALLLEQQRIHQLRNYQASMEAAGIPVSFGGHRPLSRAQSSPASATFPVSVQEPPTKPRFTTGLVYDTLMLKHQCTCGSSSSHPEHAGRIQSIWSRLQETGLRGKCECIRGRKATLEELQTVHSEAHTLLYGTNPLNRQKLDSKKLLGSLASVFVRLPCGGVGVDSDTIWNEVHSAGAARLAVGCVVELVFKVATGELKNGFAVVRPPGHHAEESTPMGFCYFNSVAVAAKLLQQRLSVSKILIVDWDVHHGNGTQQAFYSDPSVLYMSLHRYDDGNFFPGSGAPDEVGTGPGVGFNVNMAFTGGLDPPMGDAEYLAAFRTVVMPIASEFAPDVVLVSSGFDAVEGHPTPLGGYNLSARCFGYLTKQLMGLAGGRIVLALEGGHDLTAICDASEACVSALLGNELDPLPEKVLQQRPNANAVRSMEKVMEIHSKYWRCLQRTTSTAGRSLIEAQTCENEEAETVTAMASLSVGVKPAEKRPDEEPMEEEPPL

Assays:
Histone deacetylase 4 [1] = target: T1, Histone deacetylase 4 (Homo sapiens, UniProt P56524); assay: Inhibition of Class 2A HDAC4 in human Jurkat E6.1 cells using Boc-Lys-(TFA)-AMC as substrate by fluorogenic assay; format: cell-based
Method in brief: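 Whole-cell assay in Jurkat E6.1 cells with artificial fluorogenic substrates: Boc-Lys-(TFA)-AMC for class IIa/HDAC8 activity, which in this line is mostly HDAC4, and Boc-Lys-(Ac)-AMC for class I/IIb activity. IC50 given as the geometric mean of three experiments.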

Histone deacetylase 4 [2] = target: T1, Histone deacetylase 4; assay: Inhibition of HDAC4 (unknown origin) using Boc Lys(TFA) as substrate by fluorogenic assay
Method in brief: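 Biochemical HDAC isoform assay with the artificial fluorogenic substrate Boc-Lys-(TFA)-AMC, which is specific to class IIa enzymes and HDAC8. IC50 taken as the geometric mean of three experiments.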

Histone deacetylase 4 [3] = target: T1, Histone deacetylase 4; assay: Binding affinity to immobilized HDAC4 catalytic domain (unknown origin) by surface plasmon resonance assay

pIC50 (Histone deacetylase 4 [1]): 7.70
pIC50 (Histone deacetylase 4 [2]): 8.52
pKd (Histone deacetylase 4 [3]): 7.36
SMILES: CCCN(CCC)C[C@@H](C)NC(=O)c1ccc(-c2noc(C(F)(F)F)n2)cc1

pIC50, pKd: −log10 of the molar value.
